By UniProt entry, the sequences of proteins in these tests, tags left out.
UniProt P33261, whole entry: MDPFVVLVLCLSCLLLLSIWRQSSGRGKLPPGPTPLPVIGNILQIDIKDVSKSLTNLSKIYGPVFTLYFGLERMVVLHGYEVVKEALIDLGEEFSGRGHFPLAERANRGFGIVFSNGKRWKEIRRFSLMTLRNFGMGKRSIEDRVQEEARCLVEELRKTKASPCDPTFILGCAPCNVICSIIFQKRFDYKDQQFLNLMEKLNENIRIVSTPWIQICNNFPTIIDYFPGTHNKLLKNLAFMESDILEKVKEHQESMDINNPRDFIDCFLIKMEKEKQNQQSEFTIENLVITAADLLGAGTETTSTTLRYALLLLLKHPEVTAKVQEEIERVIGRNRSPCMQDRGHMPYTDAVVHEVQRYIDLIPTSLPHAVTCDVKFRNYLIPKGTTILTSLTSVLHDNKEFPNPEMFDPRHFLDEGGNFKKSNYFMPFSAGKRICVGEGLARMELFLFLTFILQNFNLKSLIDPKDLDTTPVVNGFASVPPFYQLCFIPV

In patent US11401255B2, “Small molecule activators of Parkin enzyme function” (Mayo Foundation for Medical Education and Research, priority 2016, dated 2022):

Molecular target: CYP 2C19 (Homo sapiens (Human), UniProt P33261)
Details: 24 µM

- CYP inhibition, %: 84.06%
SMILES: COc1ccc2[nH]c([S+]([O-])Cc3ncc(C)c(OC)c3C)nc2c1 (stereo not shown) [omeprazole, reference compound]
